Measurements published in PubChem BioAssay (NCI).
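Results reflect a 48-hour exposure of cells in 96-well plates to compound at five concentrations. The concentration for full growth arrest is given as TGI.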

Columns and labels:
Assay in all cases: NCI-60 cell line screen, 48 h
[1] = system: 786-0 renal
[2] = system: A498 renal
[3] = system: A549 NSCLC
[4] = system: ACHN renal
[5] = system: BT-549 breast
[6] = system: CCRF-CEM leukemia
[7] = system: COLO 205 colon
[8] = system: DU-145 prostate
[9] = system: HCC-2998 colon
[10] = system: HCT-116 colon
[11] = system: HCT-15 colon
[12] = system: HL-60(TB) leukemia
[13] = system: HOP-62 NSCLC
[14] = system: HOP-92 NSCLC
[15] = system: HS 578T breast
[16] = system: HT29 colon
[17] = system: IGROV1 ovarian
[18] = system: K-562 leukemia
[19] = system: KM12 colon
[20] = system: LOX IMVI melanoma
[21] = system: M14 melanoma
[22] = system: MALME-3M melanoma
[23] = system: MCF7 breast
[24] = system: MDA-MB-231 breast
[25] = system: MDA-MB-435
[26] = system: MDA-N
[27] = system: MOLT-4 leukemia
[28] = system: NCI-H226 lung
[29] = system: NCI-H23 lung
[30] = system: NCI-H322M lung
[31] = system: NCI-H460 lung
[32] = system: NCI-H522 lung
[33] = system: NCI/ADR-RES ovarian
[34] = system: OVCAR-3 ovarian
[35] = system: OVCAR-4 ovarian
[36] = system: OVCAR-5 ovarian
[37] = system: OVCAR-8 ovarian
[38] = system: PC-3 prostate
[39] = system: RPMI-8226 leukemia
[40] = system: SF-268 CNS
[41] = system: SF-295 CNS
[42] = system: SF-539 CNS
[43] = system: SK-MEL-28 melanoma
[44] = system: SK-MEL-5 melanoma
[45] = system: SK-OV-3 ovarian
[46] = system: SN12C renal
[47] = system: SNB-19 CNS
[48] = system: SNB-75 CNS
[49] = system: SR leukemia
[50] = system: SW-620 colon
[51] = system: T-47D breast
[52] = system: TK-10 renal
[53] = system: U251 CNS
[54] = system: UACC-62 melanoma
[55] = system: UO-31 renal

Measured: TGI

CN1C(NC#N)=NP(=O)(O)C1(C)C
> 100 µM: all assays above
